# Experimental data published in US4735954A, “Anti-rheumatic agent” (priority 1985, dated 1988).
# Assay: acute toxicity in rats
# Details: rat, in vivo, po, Male
# Source text: This invention has been achieved by our discovery of the prominent effect of KC-404 on adjuvant-induced arthritis which is an experimental model of the articular rheumatism. […] The results in Experiment 1 are predictable for the clinical effects of KC-404.
compound,measurement,value
"CC(C)C(=O)c1c(C(C)C)nn2ccccc12 [KC-404, 3-isobutyryl-2-isopropylpyrazalo[1,5-a]pyridine]",LD50,1340 mg/kg
